{"sequences": {"note": "The chains behind the UniProt entries cited, without tags or fusion partners.", "UniProt P28223, whole entry": "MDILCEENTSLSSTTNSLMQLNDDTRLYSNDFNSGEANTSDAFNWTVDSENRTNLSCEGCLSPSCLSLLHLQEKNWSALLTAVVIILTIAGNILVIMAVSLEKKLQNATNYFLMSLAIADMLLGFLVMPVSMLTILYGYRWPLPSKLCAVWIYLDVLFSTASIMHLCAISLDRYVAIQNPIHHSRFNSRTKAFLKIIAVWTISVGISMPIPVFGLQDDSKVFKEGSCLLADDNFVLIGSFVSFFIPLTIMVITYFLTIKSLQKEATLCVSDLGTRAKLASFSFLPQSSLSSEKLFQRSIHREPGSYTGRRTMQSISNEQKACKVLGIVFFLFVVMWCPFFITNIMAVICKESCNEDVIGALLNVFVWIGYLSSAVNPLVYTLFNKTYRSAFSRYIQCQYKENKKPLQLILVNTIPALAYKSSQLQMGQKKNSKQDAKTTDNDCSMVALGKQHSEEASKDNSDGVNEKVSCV"}, "source": "patent US7625889B2", "about": "“Substituted bis aryl and heteroaryl compounds as selective 5HT2A antagonists” (Aventis Pharmaceuticals Inc., priority 2005, dated 2009)", "molecular_target": "human 5HT2A receptor (Homo sapiens, UniProt P28223)", "assay": "Receptor Binding Assay, 5HT2A ([3H]N-methyl spiperone)", "conditions": "read-out: 5-HT2A Ki; BHK cells expressing human 5HT2A receptor, 2.5 nM [3H]N-methyl spiperone, 37° C.; tested form: TFA", "protocol": "Cell Culture: BHK cells stably expressing the human 5HT2A receptor were maintained in Dulbecco's Modified Eagle's Medium supplemented with […] Geneticin, 1% Sodium Pyruvate, 1% Pen-Strep and 10% Fetal Calf Serum, and treated with 5 mM sodium butyrate for 24 h to increase receptor expression before harvesting. Cells were harvested by mechanical scraping, washed with Phosphate Buffered Saline, and stored at −80° C. in 10% DMSO in 1 mg/mil aliquots until used. Protein determination was made according to Lowry.\nReceptor Binding Assays: The 5HT2A and D2L assays were conducted at 37° C. in a Tris buffer containing salts (50 mM Tris Buffer, pH 7.7; 120 mM NaCl; 5 mM KCl; 2 mM CaCl2; 1 mM MgCl2). Cell membranes (previously prepared and frozen) were rapidly thawed. Membranes were diluted to an appropriate concentration (to produce 100 μg protein/assay point for 5HT2A, and 58 μg protein/assay point for D2L) in Tris buffer and homogenized. Assays were conducted on 96-well plates, using 2.5 and 1 nM [^3H]N-methyl spiperone as radioligand for 5HT2A and D2L assays, respectively. […]\nAssays were terminated by rapid filtration through Millipore MAFB or MAFC (5HT2C) filter plates (presoaked in 50 mM Tris HCl, pH 7.7, with 0.1% Brij) using a Millipore Cell Harvester. […] 50 μl of Microscint scintillation cocktail were added and the plates were counted in a Packard Topcount scintillation counter. […]"}
{"smiles": "CCN1CCC[C@@H]1CN(Cc1ccc(F)cc1)Cc1cc(-c2ccc3[nH]c(=O)oc3c2)ccc1F", "values": [{"measurement": "Ki", "value": 490, "unit": "pM"}]}
